Source: US20140221282A1, “LONG DURATION DUAL HORMONE CONJUGATES” (priority 2011, published 2014)

Biological target: rat GLP-1 receptor (rat) (UniProt P32301)
Experiment: cell-based or functional assay

With Exendin-4 (peptide) the GLP-1 cyclase assay EC50 (control peptide) was 4 pM.
